The source of these data is patent US5196515A, “Thiolactone bifunctional chelating agents for diagnostic and therapeutic products” (The Johns Hopkins University, priority 1991, dated 1993).

Data set [1] is described as follows: Biodistribution of radiolabeled HSA in mice. It is filed as in vivo, male CD-1 mice. As to conditions: for blood retention / clearance of label in blood: FIG. 2A, in words. From the text:
In vivo evaluation of labeled HSA is simplified because the level of radioactivity in the blood is a measure of stability and viability. Any loss of the Tc label or denaturation of the labeled protein will be observed as low blood retention and abnormal accumulation of radioactivity in organs such as stomach, kidney, or liver (Pettit et al., 1978). Biodistribution of the Tc-99m labeled HSA products were compared with I-125 labeled HSA in male CD-1 mice. The behavior of the Tc-99m-nDADT:HSA (n=1-6) were similar in these in vivo studies and are typified by Tc-99m-3DADT:HSA in FIGS. 2A and 2B. […] The small differences in clearance between the Tc-99m-nDADT:HSA and I-125-HSA at the longer time points may be due to differences in the handling of the respective labels once significant metabolism of the protein has occurred.
The stability of label and the viability of the ^99m Tc-labeled HSA products in vivo were assessed by studying the biodistribution of [^99m Tc]-labeled HSA and [^99m Tc]nDADT:HSA (N=1, 2, 3, and 6) as compared to [^125 I]-labeled HSA in mice. The temporal distribution of [^99m Tc]- and [^125 I]-radioactivity in blood stomach, liver, kidneys, and intestines of male CD-1 mice were determined as follows: HPLC purified [^125 I]-labeled HSA, [^99m Tc]-labeled HSA and [^99m Tc]nDADT:HSA (n=1, 2, 3, and 6) were approximately diluted to 10 μCi/ml. Aliquots of the diluted samples (0.2 ml, 2 μCi) were injected through the tail vein. At 5, 15, 30, 60 and 180 min postinjection, groups of six mice were killed by cervical dislocation and the organs of interest were removed by dissection and weighed. Tissue radioactivity was determined using an automated scintillation well counter with a 100 to 180 KeV window. The per cent injected does per gram of wet tissue per organ was calculated by comparison to standard dilutions of the injected dose and corrected for decay.

Data set [2] is described as follows: Blood retention of radiolabeled HSA in rabbits. Type of data set: in vivo, Female New Zealand White rabbits. As to conditions: rabbit, up to six hours postinjection, FIG. 3. On the procedure:
Three rabbits were injected through the left ear vein with a mixture of HPLC purified [^125 I]-labeled HSA and [^99m Tc]3DADT-HSA (50 μCi each). At 5, 15, 30, 60, 180 and 360 min postinjection, 0.5 ml blood samples were drawn from the contralateral ear. The technetium-99m radioactivity in the samples was measured using an automated scintillation well counter with a 100 to 180 KeV window as described above. After a three day, 12 half-lives, decay period for the [^99m Tc]-radioactivity, the [^125 I]-radioactivity in the samples was measured using the automated scintillation well counter with a 20 to 80 KeV window.
Male CD-1 mice (average weight 25 g) were purchased from the Charles River Laboratories. Female New Zealand White rabbits (average weight 20 kg) were purchased from Bunnyville.

Data set [3] in a line: In vitro stability of Tc-99m labeled HSA, HPLC purified products incubated at room temperature. As to conditions: 3.5 hours incubation. Type of data set: physicochemical. How it is done:
As a measure of stability of the labeled HSA molecules, HPLC purified products were incubated at room temperature. For HSA labeled without the use of the BCA, hydrolyzed reduced Tc-99m and [TcO4 ]^- were formed (FIG. 1). These decomposition products account for 66% of the label at 3.5 hours incubation.

As for “I-125-HSA: I-125 labeled HSA [Example I-125-HSA]”, the “blood retention / clearance of label in blood” value in data set [1] is given as “early retention of the label in the blood was similar”. The substance further yielded a total stomach accumulation in data set [1] (FIG. 2B) of less than 4.5 % ID/organ.

Consider “Tc-99m-3DADT:HSA: Tc-99m labeled HSA with an average of 3 DADT chelating groups”, for which the “blood retention, Tc-99m-3DADT:HSA compared to I-125-HSA” value in data set [2] is listed as “practically no difference”.

Turning to “Tc-99m-HSA (unmodified): HSA labeled with Tc-99m without the use of the BCA”, the “decomposition products (share of the label)” value in data set [3] is on record as 66%. Further, the “blood retention / clearance of label in blood” value in data set [1] is “lower initial retention and faster clearance of the label in blood”. Moreover, the stomach uptake result in data set [1] (by 30 min, FIG. 2B) was “up to 20 % of the injected dose”.
